Experiment [1] has as its target Epidermal growth factor receptor (Homo sapiens) (UniProt P00533). To be noted: at 1 µM.
The target is the same in experiment [2]. The note with it: at 10 µM.
Experiment [3] deals with T1, Eukaryotic elongation factor 2 kinase (Homo sapiens) (UniProt O00418).
T1 sequence (whole entry): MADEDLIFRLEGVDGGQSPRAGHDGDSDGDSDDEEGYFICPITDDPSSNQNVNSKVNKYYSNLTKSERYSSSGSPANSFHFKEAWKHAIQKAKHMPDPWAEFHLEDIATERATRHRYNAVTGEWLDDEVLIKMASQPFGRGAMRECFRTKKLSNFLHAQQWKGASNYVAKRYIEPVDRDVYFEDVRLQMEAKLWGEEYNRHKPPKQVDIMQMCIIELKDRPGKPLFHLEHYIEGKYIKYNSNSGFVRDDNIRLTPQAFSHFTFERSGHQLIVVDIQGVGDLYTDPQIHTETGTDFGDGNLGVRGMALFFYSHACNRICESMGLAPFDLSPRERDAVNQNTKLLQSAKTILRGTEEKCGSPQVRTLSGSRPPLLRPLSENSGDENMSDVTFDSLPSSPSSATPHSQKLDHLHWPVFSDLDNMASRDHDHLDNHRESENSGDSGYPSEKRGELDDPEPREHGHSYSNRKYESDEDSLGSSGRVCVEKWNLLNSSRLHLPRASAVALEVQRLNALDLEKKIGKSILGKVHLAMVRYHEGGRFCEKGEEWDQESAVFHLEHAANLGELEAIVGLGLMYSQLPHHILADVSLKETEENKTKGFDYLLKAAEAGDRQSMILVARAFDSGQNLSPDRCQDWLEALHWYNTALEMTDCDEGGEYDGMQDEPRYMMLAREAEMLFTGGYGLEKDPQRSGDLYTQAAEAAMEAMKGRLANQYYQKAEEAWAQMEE
To be noted: at 1 µM.

Chains of the proteins cited; added tags and fusions are not shown. Lines headed by an entry give the natural chain unless they say otherwise; changes in a name come on top.
UniProt P16591: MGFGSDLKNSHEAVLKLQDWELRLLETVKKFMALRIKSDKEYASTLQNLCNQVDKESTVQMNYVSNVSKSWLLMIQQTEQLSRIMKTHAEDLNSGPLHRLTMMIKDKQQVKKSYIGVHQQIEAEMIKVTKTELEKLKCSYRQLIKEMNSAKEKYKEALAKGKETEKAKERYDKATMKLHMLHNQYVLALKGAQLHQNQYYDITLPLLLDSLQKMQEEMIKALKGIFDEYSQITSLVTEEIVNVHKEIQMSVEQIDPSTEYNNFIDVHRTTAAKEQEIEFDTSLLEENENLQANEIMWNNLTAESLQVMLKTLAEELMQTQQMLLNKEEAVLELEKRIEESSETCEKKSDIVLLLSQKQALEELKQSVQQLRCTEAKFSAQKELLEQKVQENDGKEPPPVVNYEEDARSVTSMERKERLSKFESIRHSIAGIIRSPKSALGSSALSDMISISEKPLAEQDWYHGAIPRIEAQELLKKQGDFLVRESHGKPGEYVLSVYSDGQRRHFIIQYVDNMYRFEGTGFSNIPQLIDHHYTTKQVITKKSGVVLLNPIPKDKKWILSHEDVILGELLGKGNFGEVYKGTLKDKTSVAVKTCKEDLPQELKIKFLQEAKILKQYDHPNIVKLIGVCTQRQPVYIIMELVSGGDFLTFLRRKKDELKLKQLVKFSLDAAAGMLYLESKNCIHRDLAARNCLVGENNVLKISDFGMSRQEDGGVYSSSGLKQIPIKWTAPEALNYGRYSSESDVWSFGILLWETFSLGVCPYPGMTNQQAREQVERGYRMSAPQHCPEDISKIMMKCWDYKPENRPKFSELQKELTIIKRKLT
UniProt Q9BZL6: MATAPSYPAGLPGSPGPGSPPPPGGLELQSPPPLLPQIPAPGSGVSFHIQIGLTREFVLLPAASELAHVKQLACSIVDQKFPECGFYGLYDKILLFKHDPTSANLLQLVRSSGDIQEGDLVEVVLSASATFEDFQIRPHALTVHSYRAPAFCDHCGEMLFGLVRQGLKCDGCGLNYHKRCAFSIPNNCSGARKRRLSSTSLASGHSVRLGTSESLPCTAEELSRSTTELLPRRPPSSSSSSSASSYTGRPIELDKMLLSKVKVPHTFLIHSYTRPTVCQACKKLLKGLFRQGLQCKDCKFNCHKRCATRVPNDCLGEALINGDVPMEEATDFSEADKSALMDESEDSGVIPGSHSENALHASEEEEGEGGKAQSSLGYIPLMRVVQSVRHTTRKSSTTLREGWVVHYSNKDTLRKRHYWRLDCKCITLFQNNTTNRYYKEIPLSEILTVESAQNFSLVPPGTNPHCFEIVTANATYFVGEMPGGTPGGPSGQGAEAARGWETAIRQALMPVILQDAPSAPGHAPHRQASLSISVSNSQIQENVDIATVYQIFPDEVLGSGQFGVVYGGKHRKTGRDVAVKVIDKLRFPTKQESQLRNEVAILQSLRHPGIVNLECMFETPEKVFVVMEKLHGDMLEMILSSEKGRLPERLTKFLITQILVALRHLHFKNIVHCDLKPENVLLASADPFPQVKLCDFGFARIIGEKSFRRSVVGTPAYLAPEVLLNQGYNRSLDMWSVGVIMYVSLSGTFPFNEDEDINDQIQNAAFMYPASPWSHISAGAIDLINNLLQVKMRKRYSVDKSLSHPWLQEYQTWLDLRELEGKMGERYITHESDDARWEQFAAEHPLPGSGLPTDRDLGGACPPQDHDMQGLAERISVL
UniProt P15735: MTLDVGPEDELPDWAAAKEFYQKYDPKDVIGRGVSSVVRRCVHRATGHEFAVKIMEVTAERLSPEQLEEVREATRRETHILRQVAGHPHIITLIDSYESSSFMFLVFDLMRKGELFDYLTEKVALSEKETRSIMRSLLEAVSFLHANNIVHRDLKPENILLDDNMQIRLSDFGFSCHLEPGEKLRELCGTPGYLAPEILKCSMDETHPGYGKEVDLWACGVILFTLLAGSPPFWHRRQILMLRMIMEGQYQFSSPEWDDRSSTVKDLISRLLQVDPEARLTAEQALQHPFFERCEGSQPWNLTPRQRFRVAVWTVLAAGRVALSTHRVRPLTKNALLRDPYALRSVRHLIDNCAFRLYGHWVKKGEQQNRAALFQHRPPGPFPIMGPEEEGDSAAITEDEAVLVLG
UniProt P53350, whole entry: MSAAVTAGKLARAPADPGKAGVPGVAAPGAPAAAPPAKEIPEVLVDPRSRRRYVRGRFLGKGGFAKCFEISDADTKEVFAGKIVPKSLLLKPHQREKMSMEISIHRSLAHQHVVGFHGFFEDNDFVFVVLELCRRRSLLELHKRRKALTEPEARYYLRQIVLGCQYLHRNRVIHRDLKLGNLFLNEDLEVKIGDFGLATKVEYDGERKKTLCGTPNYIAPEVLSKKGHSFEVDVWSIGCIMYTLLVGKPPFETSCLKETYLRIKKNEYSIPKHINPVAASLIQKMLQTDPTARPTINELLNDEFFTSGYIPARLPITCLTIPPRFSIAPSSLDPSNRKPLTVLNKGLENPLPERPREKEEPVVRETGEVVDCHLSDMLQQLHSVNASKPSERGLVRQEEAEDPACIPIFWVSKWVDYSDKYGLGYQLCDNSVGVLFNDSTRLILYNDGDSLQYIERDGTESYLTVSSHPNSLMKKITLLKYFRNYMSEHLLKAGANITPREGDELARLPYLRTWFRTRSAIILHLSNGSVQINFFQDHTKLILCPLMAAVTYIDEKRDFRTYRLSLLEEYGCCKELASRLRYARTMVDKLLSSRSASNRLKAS
UniProt P45983: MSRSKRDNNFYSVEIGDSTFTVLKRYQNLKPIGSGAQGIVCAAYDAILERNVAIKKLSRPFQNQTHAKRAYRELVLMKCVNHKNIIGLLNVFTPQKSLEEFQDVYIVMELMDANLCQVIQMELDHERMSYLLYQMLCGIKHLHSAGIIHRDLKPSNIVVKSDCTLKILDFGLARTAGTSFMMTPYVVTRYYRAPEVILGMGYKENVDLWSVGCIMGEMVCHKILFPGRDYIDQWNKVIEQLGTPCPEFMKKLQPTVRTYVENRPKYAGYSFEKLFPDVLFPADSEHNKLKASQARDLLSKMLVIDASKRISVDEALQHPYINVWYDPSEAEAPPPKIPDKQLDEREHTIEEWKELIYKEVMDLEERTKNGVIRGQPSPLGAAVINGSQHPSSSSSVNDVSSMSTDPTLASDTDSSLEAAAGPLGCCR
UniProt Q16644, whole entry, looked up: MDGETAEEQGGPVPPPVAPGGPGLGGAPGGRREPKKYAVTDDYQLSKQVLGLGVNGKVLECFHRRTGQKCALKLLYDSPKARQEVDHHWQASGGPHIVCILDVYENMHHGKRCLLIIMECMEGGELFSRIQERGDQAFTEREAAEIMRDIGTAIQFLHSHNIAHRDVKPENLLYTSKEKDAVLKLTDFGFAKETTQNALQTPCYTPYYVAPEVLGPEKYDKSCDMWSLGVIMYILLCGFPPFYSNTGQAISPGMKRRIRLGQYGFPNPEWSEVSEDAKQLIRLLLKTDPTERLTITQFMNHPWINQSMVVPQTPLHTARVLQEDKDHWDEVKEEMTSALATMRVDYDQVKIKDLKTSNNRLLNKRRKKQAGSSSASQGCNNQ
UniProt Q9P286: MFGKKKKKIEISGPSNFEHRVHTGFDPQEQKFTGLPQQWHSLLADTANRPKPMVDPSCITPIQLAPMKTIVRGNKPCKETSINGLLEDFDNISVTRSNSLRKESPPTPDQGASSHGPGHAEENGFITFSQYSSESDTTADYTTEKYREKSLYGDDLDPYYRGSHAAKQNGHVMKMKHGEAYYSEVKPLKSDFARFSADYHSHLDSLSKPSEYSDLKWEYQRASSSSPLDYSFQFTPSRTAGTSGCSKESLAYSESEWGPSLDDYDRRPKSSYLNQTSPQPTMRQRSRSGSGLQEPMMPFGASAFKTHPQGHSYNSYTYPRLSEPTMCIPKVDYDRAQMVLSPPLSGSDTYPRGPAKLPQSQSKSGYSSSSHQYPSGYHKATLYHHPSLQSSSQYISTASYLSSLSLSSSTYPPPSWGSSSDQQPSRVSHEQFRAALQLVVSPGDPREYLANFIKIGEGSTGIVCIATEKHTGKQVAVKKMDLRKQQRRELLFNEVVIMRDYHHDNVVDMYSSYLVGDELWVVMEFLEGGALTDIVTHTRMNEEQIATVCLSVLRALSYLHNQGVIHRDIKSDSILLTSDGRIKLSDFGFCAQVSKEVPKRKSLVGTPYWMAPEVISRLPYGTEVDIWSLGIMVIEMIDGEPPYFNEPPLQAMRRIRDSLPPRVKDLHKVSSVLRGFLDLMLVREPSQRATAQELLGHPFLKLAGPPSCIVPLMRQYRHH
UniProt P31749: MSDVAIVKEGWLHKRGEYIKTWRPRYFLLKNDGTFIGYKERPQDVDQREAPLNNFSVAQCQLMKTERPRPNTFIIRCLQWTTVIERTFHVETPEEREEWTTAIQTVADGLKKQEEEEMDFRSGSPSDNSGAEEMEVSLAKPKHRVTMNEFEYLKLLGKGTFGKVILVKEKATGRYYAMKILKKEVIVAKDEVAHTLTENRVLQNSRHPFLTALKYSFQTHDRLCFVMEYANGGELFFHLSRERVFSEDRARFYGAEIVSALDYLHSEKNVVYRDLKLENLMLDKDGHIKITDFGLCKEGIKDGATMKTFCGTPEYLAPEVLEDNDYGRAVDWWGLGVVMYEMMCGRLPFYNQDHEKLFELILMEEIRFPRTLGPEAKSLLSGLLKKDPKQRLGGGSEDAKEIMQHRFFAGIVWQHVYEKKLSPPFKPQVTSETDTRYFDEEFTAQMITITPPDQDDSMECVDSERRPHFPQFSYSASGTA
UniProt Q9NYY3: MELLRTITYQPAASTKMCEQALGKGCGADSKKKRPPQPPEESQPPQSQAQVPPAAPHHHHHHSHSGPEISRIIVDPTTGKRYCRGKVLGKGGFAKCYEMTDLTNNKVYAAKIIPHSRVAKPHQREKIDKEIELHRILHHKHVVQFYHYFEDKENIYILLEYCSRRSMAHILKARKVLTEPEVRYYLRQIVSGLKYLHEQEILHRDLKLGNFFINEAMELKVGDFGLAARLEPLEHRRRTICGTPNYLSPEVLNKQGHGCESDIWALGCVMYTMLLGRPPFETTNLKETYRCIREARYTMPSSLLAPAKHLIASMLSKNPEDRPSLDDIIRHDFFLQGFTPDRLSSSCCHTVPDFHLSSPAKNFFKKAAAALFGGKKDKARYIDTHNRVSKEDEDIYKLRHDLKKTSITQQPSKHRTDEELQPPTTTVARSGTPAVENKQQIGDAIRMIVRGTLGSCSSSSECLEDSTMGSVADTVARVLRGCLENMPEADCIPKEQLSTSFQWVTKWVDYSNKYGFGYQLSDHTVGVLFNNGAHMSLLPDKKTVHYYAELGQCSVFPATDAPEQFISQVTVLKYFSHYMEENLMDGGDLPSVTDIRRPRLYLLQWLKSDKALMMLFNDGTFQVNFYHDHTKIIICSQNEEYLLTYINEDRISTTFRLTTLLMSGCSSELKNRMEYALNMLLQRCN
UniProt Q9HC98: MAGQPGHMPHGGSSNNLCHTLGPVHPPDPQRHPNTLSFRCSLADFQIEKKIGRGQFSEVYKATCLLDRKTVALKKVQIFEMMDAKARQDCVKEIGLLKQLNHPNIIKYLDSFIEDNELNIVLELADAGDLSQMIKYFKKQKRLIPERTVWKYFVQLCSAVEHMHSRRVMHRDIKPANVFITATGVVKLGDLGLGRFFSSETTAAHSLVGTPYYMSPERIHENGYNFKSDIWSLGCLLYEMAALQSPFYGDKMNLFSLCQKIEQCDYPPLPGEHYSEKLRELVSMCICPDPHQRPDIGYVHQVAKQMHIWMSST

Experiment [4] has as its target Mitogen-activated protein kinase kinase kinase 5 (Homo sapiens) (UniProt Q99683). To be noted: at 10 µM.
Experiment [5] has as its target Casein kinase II subunit alpha' (Homo sapiens) (UniProt P19784). To be noted: at 1 µM.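 Note: residual kinase activity of CSNK2A2 expressed as percent of untreated control, so lower values mean stronger inhibition, with Jnk Inhibitor II at 100 µM as reference inhibitor.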
Experiment [6] deals with Calcium/calmodulin-dependent protein kinase type 1 (Homo sapiens) (UniProt Q14012). The note with it: at 1 µM.
Experiment [7] has as its target Ephrin type-A receptor 2 (Homo sapiens) (UniProt P29317). To be noted: at 1 µM.
For experiment [8], the target named is Ephrin type-B receptor 3 (Homo sapiens) (UniProt P54753). To be noted: at 1 µM.
The target of experiment [9] is Fibroblast growth factor receptor 4 (Homo sapiens) (UniProt P22455). To be noted: at 1 µM.
In experiment [10] the target is Tyrosine-protein kinase Fer (Homo sapiens) (UniProt P16591). To be noted: at 1 µM.
For experiment [11], the target named is Protein kinase C eta type (Homo sapiens) (UniProt P24723). The note with it: at 1 µM.
Experiment [12] addresses T2, Protein kinase C iota type (Homo sapiens) (UniProt P41743).
T2 sequence (whole entry): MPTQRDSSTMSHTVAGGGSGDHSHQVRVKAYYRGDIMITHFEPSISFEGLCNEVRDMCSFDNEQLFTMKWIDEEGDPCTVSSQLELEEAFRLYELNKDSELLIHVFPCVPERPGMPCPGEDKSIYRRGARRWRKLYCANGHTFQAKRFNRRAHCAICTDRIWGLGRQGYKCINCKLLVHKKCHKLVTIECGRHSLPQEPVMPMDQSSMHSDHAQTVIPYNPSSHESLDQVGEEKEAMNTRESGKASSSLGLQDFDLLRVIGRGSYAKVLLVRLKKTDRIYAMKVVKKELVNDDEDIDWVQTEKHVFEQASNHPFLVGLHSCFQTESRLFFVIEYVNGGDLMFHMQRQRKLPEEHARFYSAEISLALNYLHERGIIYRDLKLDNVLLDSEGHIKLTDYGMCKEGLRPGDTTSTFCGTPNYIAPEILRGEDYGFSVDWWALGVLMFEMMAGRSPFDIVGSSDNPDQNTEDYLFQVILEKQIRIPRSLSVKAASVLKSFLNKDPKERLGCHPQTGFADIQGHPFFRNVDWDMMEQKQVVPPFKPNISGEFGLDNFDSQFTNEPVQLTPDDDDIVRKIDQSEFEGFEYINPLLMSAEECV
The note with it: at 1 µM.

Experiment [13] deals with T2, Protein kinase C iota type (Homo sapiens). To be noted: at 10 µM.
For experiment [14], the target named is Serine/threonine-protein kinase D2 (Homo sapiens) (UniProt Q9BZL6). The note with it: at 10 µM.
Experiment [15] has as its target T3, cGMP-dependent protein kinase 1 (Homo sapiens) (UniProt Q13976).
T3 sequence (whole entry): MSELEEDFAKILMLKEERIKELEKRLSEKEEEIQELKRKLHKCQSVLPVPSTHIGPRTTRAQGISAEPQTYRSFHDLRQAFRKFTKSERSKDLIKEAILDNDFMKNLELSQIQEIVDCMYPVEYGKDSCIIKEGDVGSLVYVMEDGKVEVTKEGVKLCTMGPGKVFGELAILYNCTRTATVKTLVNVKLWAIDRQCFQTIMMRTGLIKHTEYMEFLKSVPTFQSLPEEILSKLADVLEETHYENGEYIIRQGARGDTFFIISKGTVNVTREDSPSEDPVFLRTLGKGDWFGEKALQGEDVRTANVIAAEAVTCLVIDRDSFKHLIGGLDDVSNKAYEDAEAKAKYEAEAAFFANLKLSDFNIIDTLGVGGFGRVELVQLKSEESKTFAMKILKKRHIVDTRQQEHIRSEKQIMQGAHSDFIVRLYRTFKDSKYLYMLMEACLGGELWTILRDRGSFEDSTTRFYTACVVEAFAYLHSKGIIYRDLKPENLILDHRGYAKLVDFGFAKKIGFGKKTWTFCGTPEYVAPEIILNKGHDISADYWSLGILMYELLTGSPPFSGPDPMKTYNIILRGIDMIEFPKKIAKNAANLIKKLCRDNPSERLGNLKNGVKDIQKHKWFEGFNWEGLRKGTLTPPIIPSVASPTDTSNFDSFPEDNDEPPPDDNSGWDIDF
The note with it: at 1 µM.

The target of experiment [16] is Phosphorylase b kinase gamma catalytic chain, liver/testis isoform (Homo sapiens) (UniProt P15735). The note with it: at 1 µM.
For experiment [17], the target named is Serine/threonine-protein kinase PLK1 (Homo sapiens) (UniProt P53350). The note with it: at 1 µM.
The target of experiment [18] is Rho-associated protein kinase 1 (Homo sapiens) (UniProt Q13464). To be noted: at 1 µM.
For experiment [19], the target named is Mitogen-activated protein kinase 13 (Homo sapiens) (UniProt O15264). To be noted: at 1 µM.
For experiment [20], the target named is Insulin receptor (Homo sapiens) (UniProt P06213). The note with it: at 1 µM.
Experiment [21] has the same target. To be noted: at 1 µM. This is another data set of the same source.
For experiment [22], the target named is Mitogen-activated protein kinase 8 (Homo sapiens) (UniProt P45983). To be noted: at 1 µM.
The target in experiment [23] is MAP kinase-activated protein kinase 3 (Homo sapiens) (UniProt Q16644). The note with it: at 1 µM.
The target in experiment [24] is Dual specificity mitogen-activated protein kinase kinase 6 (Homo sapiens) (UniProt P52564). To be noted: at 10 µM.
Experiment [25] concerns the target Death-associated protein kinase 3 (Homo sapiens) (UniProt O43293). The note with it: at 1 µM.
Experiment [26] concerns the target T1, Eukaryotic elongation factor 2 kinase (Homo sapiens). To be noted: at 10 µM.
Experiment [27] concerns the target Serine/threonine-protein kinase mTOR (Homo sapiens) (UniProt P42345). To be noted: at 1 µM.
Experiment [28] shares this target. The note with it: at 10 µM.
Experiment [29] deals with Serine/threonine-protein kinase PAK 5 (Homo sapiens) (UniProt Q9P286). To be noted: at 1 µM.
Experiment [30] concerns the target RAC-alpha serine/threonine-protein kinase (Homo sapiens) (UniProt P31749). To be noted: at 1 µM.
For experiment [31], the target named is Protein kinase C alpha type (Homo sapiens) (UniProt P17252). To be noted: at 1 µM.
Experiment [32] has the same target. The note with it: at 10 µM.
The target in experiment [33] is Protein kinase C beta type (Homo sapiens) (UniProt P05771). The note with it: at 1 µM.
Experiment [34] has as its target Protein kinase C gamma type (Homo sapiens) (UniProt P05129). The note with it: at 1 µM.
Experiment [35] concerns the target Protein kinase C epsilon type (Homo sapiens) (UniProt Q02156). To be noted: at 10 µM.
Experiment [36] has as its target CDK3/cyclin E (Homo sapiens) (UniProt P24864+O96020+Q00526). To be noted: at 1 µM.
Experiment [37] has as its target Tyrosine-protein kinase BTK (Homo sapiens) (UniProt Q06187). To be noted: at 1 µM.
For experiment [38], the target named is Ephrin type-B receptor 1 (Homo sapiens) (UniProt P54762). The note with it: at 10 µM.
The target of experiment [39] is Ephrin type-B receptor 2 (Homo sapiens) (UniProt P29323). To be noted: at 1 µM.
Experiment [40] deals with Fibroblast growth factor receptor 3 (Homo sapiens) (UniProt P22607). To be noted: at 10 µM.
In experiment [41] the target is Tyrosine-protein kinase Fes/Fps (Homo sapiens) (UniProt P07332). To be noted: at 10 µM.
Experiment [42] has as its target Homeodomain-interacting protein kinase 3 (Homo sapiens) (UniProt Q9H422). The note with it: at 1 µM.
The target in experiment [43] is Serine/threonine-protein kinase PLK3 (Homo sapiens) (UniProt Q9H4B4). The note with it: at 1 µM.
Experiment [44] concerns the target Tyrosine-protein kinase receptor TYRO3 (Homo sapiens) (UniProt Q06418). To be noted: at 10 µM.
Experiment [45] concerns the target Mitogen-activated protein kinase 12 (Homo sapiens) (UniProt P53778). To be noted: at 1 µM.
The target in experiment [46] is Serine/threonine-protein kinase Sgk3 (Homo sapiens) (UniProt Q96BR1). The note with it: at 1 µM.
For experiment [47], the target named is Serine/threonine-protein kinase PLK2 (Homo sapiens) (UniProt Q9NYY3). To be noted: at 1 µM.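 Note: residual PLK2 kinase activity expressed as percent of uninhibited control, measured in MOPS buffer at pH 7.0 with EDTA.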
For experiment [48], the target named is Insulin-like growth factor 1 receptor (Homo sapiens) (UniProt P08069). The note with it: at 10 µM.
The target of experiment [49] is Serine/threonine-protein kinase WNK2 (Homo sapiens) (UniProt Q9Y3S1). To be noted: at 1 µM.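 Note: residual WNK2 kinase activity expressed as percent of uninhibited control, assayed in MOPS buffer at pH 7.0 containing EDTA.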
Experiment [50] addresses Serine/threonine-protein kinase Nek6 (Homo sapiens) (UniProt Q9HC98). The note with it: at 1 µM.
Experiment [51] addresses Serine/threonine-protein kinase Nek7 (Homo sapiens) (UniProt Q8TDX7). The note with it: at 1 µM.

For some assays here: What follows is the remainder of the data, with few or none of the strong results. The list shows a part of the results, in another mix than the full data.

`Cc1cc(Nc2nc(-c3ccccc3)nc3ccccc23)n[nH]1`: the results for the residual activity in experiment [1] and in experiment [2] were 15% and 7%, respectively.

For the compound `CC[n+]1c(/C=C/N(C)c2ccccc2)n(-c2ccccc2)c2ccc(-c3nc4ccccc4s3)cc21`, the results for the residual activity in experiment [1], in experiment [2] and in experiment [3] were 115%, 108% and inactive: 99%, respectively.

Turning to `O=C(c1cc2cc(O)ccc2[nH]1)c1cc2cc(O)ccc2[nH]1`, the residual activity turned out to be 98% in [4]; 104% in experiment [5]; 88% in experiment [6]; 103% in experiment [1]; 82% in experiment [2]; 97% in [7]. For the same compound, the residual activity in experiment [8] was inactive: 105%; in experiment [9] it was 96%; in experiment [10], 107%; in experiment [11], 101%; in experiment [12], inactive: 92%; in experiment [13], 93%. In addition, the residual activity was 87% in experiment [14]; 91% in [15]; 91% in experiment [16]; 92% in experiment [17]; 97% in experiment [18]; 94% in experiment [19]. In addition, the residual activity in experiment [20] is 94%; in [21], 95%; in experiment [22] it was 96%; in experiment [23], 99%; in experiment [24] it was 86%; in experiment [25] it was 85%. In addition, the residual activity was inactive: 95% in experiment [3]; 82% in [26]; 99% in [27]; 98% in [28]; 89% in experiment [29]; 102% in experiment [30]. For the same compound, the residual activity was found to be 104% in experiment [31]; 93% in experiment [32]; 106% in [33]; 101% in experiment [34]; 102% in experiment [35].

As for `Cn1cc(/C=C2\C(=O)Nc3ccc(S(N)(=O)=O)cc32)c2ccccc21`, the residual activity was 103% in experiment [1], 114% in experiment [2], inactive: 98% in experiment [3] and 94% in experiment [26].

Take `O=C1Cc2c([nH]c3ccc([N+](=O)[O-])cc23)-c2ccccc2N1`: the residual activity in experiment [36] stood at 15%.

For `Ic1cccc(CSc2nnc(-c3ccncc3)o2)c1`, the residual activity in experiment [1] is 111%; in experiment [2] it was 111%; in [3], inactive: 83%; in experiment [26], 87%.

Turning to `O=C1NC(=O)C(c2cn(CCCO)c3ncccc23)=C1c1cnccn1`, the residual activity is 106% in experiment [37]; 105% in experiment [1]; 104% in experiment [2]; 101% in [7]; 104% in experiment [38]; 111% in experiment [39]. Further, the residual activity in [40] is 102%; in [41], 101%; in experiment [42], 103%; in experiment [13] it was 109%; in [15], 114%; in experiment [43], inactive: 106%. For the same compound, the residual activity in experiment [44] was 105%; in experiment [45], 107%; in experiment [46] it was 113%; in [47] it was 107%; in experiment [48], 110%; in [49] it was inactive: 108%. The residual activity in experiment [3] was inactive: 99%; in [26], 108%; in experiment [27] it was 104%; in [50], inactive: 102%; in [51], inactive: 108%; in experiment [30], 109%. Further, the residual activity in [31] turned out to be 103%.
